{"source": "patent US20110195022A1", "about": "(IMMUNOGEN, published 2011)", "binders": {"B1": {"name": "2F2 (antibody, V domains shown)", "VH": "EVQLVESGGGLVQPGRSLRLSCAASGFTFNDYAMHWVRQAPGKGLEWVSTISWNSGSIGYADSVKGRFTISRDNAKKSLYLQMNSLRAEDTALYYCAKDIQYGNYYYGMDVWGQGTTVTVSS", "VL": "EIVLTQSPATLSLSPGERATLSCRASQSVSSYLAWYQQKPGQAPRLLIYDASNRATGIPARFSGSGSGTDFTLTISSLEPEDFAVYYCQQRSNWPITFGQGTRLEIK"}}, "key": {"human CD20 [1]": {"target": "T1, human CD20 (human, UniProt P11836 1-297)", "T1 construct": "whole, on cells; Tetra-spanin type membrane antigen, always presented on cells; also called CD20 wildtype; wild type CD20", "T1 sequence (looked up)": "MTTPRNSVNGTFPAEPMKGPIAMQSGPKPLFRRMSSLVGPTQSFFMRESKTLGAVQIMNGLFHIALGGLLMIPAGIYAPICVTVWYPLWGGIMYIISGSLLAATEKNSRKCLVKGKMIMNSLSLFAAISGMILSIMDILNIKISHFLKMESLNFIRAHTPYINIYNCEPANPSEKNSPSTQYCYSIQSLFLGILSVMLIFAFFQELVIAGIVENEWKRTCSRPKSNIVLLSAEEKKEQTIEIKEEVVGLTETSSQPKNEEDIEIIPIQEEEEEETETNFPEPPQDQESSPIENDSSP", "experiment": "flow cytometry, 300-19 cells transfected with wild type human CD20, MFI against antibody concentration"}, "human CD20 [2]": {"target": "T1, human CD20", "experiment": "cell-based or functional assay"}}, "data": [{"binder": "B1", "values": [{"measurement": "EC50 (read off the curve)", "setting": "human CD20 [1]", "result": "~0.6", "unit": "nM"}, {"measurement": "EC50 of ADCC, DOHH-2 cells, human NK cells, LDH release", "setting": "human CD20 [2]", "result": 0.6, "unit": "ng/mL"}, {"measurement": "EC50 of ADCC, Granta-519 cells, human NK cells, LDH release", "setting": "human CD20 [2]", "result": 0.47, "unit": "ng/mL"}, {"measurement": "EC50 of ADCC, JVM-13 cells, human NK cells, LDH release", "setting": "human CD20 [2]", "result": 0.17, "unit": "ng/mL"}, {"measurement": "EC50 of ADCC, Ramos cells, human NK cells, LDH release", "setting": "human CD20 [2]", "result": 1.2, "unit": "ng/mL"}, {"measurement": "EC50 of ADCC, SU-DHL-4 cells, human NK cells, LDH release", "setting": "human CD20 [2]", "result": 0.6, "unit": "ng/mL"}, {"measurement": "EC50 of ADCC, WSU-DLCL-2 cells, human NK cells, LDH release", "setting": "human CD20 [2]", "result": 0.56, "unit": "ng/mL"}, {"measurement": "EC50 of CDC, Daudi cells, 5% human complement", "setting": "human CD20 [2]", "result": 340, "unit": "ng/mL"}, {"measurement": "EC50 of CDC, Raji cells, 5% human complement", "setting": "human CD20 [2]", "result": 130, "unit": "ng/mL"}, {"measurement": "EC50 of CDC, Ramos cells, 5% human complement", "setting": "human CD20 [2]", "result": 50, "unit": "ng/mL"}, {"measurement": "EC50 of CDC, SU-DHL-4 cells, 5% human complement", "setting": "human CD20 [2]", "result": 95, "unit": "ng/mL"}]}]}
